Screens as filed in PubChem.
Only some compounds are listed: those with a hit (about 1% of all), similar ones and a draw of the others.
Yeast UUG start – modulators of yeast start codon fidelity, primary screen, whole organism, S. cerevisiae, single point, plate reader | S. cerevisiae UUG-firefly luciferase reporter, luminescence/redox ratio | activity score, % at 18.7 µM | hit rate 0.13% among 350,000;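 active = replicate mean at a twofold rise or more, about +100% in these data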;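 note: firefly luciferase made from a UUG start codon reports start codon fidelity; reporter light over untreated wells divided by growth signal over untreated wells; some hits fall short of that in this replicate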
Statin myotox sup – suppressors of simvastatin-induced myotoxicity in C2C12 myotubes; ATP luminescence, 48 h; scaled: DMSO 0, geranylgeraniol control 100; rescue of ATP level, % at 7.49 µM; hit rate 0.78% among 330,000; AID 602340;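 active = mean ATP rescue above about 67%, or every replicate alone reaching that limit, limit read from the data, passing the limit was not always enough; inconclusive = no clear call, values can overlap the other calls; inactive = mean under the limit and some replicate under it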;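 note: myotubes were challenged with 10 µM simvastatin during compound exposure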
CDK5 inh – CDK5/p35 (human) kinase inhibition | inhibition, % at 10 µM | hit rate 0.01% among 330,000 | Q00535+Q15078 | Recombinant CDK5/p35, ADP-Glo luminescence, 60 min;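 active = highest replicate inhibition of at least 50% and at least 75% of replicates reaching 50%; inconclusive = only one of the two criteria met; inactive = both criteria failed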
Cneo AK release – Cryptococcus neoformans lysis via adenylate kinase release; C. neoformans lysis, adenylate kinase release luminescence, 4 h; normalised: neutral wells 0, clomiphene wells 100; lysis activity, % at 15 µM; hit rate 0.2% among 360,000; AID 651654;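 active = mean lysis activity across replicates of at least 80%, whatever share of replicates individually reach that level; inactive = mean lysis activity below 80%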
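Signal: Adenylate kinase release luminescence | Assay system: Log-phase Cryptococcus neoformans yeast cells | Input: Cells at 5 × 10^6 per mL | Buffer or medium: Fresh YPD growth medium | Compound: Single dose | Schedule: Static 4 h at 37 °C with compound, 1 h detection | Controls: Clomiphene | Read-out: Luminescence rise reflecting yeast cell lysis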
Rtt109 Vps75 – inhibitors of Candida albicans Rtt109/Vps75 histone acetyltransferase. Q5AAJ8. purified Rtt109/Vps75, ThioGlo CoA-SH fluorescence, 4 h. inhibition, % at 34.9 µM. hit rate 0.16% among 330,000. AID 540336;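 active = inhibition of at least 50% in every replicate; inconclusive = best replicate reaches 50% inhibition but some replicates fall short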
Each line names hits and unclear results; the compound was inactive in the other large screens.

C[C@@H]1CN([C@H](C)CO)C(=O)c2cc(NC(=O)Nc3ccc(F)cc3)ccc2O[C@@H]1CN(C)S(C)(=O)=O	none (no result: CDK5 inh, Rtt109 Vps75)
C[C@H]1CN([C@@H](C)CO)C(=O)c2cc(NC(=O)Nc3ccc(F)cc3)ccc2O[C@@H]1CN(C)S(C)(=O)=O	Cneo AK release 100 (no result: CDK5 inh, Rtt109 Vps75)
C[C@@H]1CN([C@@H](C)CO)C(=O)c2cc(NC(=O)Cc3ccccc3)ccc2O[C@@H](C)CCCCO[C@@H]1CN(C)S(=O)(=O)c1ccc(F)cc1	Statin myotox sup 101 (no result: CDK5 inh, Rtt109 Vps75)
C[C@@H]1CN([C@@H](C)CO)C(=O)c2cc(NC(=O)Nc3ccc(F)cc3)ccc2O[C@@H](C)CCCCO[C@H]1CN(C)S(=O)(=O)c1ccccc1	Cneo AK release 101 (no result: Statin myotox sup, CDK5 inh, Rtt109 Vps75)
CCS(=O)(=O)Nc1ccc2c(c1)C(=O)N(C)C[C@H](OC)[C@H](C)CN(C(=O)COC)[C@H](C)CO2	none (no result: Yeast UUG start, CDK5 inh, Cneo AK release, Rtt109 Vps75)
C/C=C/c1ccc2c(c1)O[C@@H](CN(C)Cc1ccncc1)[C@H](C)CN([C@H](C)CO)S2(=O)=O	none (no result: CDK5 inh, Rtt109 Vps75)
O=S(=O)(Nc1cccc2cccnc12)c1ccccc1	none
O=S(=O)(Nc1cccc2cccnc12)c1ccc(S(=O)(=O)N2CCCC2)cc1	Statin myotox sup 70
C[C@@H]1CN([C@H](C)CO)C(=O)c2cccc(NC(=O)C3CCCCC3)c2O[C@@H]1CN(C)S(=O)(=O)c1ccccc1	none (no result: CDK5 inh, Rtt109 Vps75)
COc1ccccc1CNC(=O)C[C@@H]1CC[C@@H]2[C@H](COC[C@@H](O)CN2Cc2ccccc2)O1	Cneo AK release 109 (no result: Yeast UUG start, CDK5 inh, Rtt109 Vps75)
O=C(C[C@@H]1CC[C@@H]2[C@H](COC[C@H](O)CN2Cc2ccc(Cl)cc2)O1)NCc1cccc(F)c1	none (no result: Yeast UUG start, CDK5 inh, Rtt109 Vps75)
CCC(=O)N1C[C@H](O)COC[C@@H]2O[C@@H](CC(=O)NCc3ccccc3Cl)CC[C@H]21	Cneo AK release 117 (no result: Yeast UUG start, CDK5 inh, Rtt109 Vps75)
O=C(C[C@@H]1CC[C@H]2[C@@H](COC[C@@H](O)CN2Cc2ccc(Cl)cc2)O1)NCc1cccc(F)c1	Cneo AK release 104 (no result: Yeast UUG start, CDK5 inh, Rtt109 Vps75)
CCC(=O)Nc1ccc2c(c1)C(=O)N(C)C[C@@H](OC)[C@@H](C)CN(Cc1ccncc1)[C@H](C)CO2	none (no result: Yeast UUG start, CDK5 inh, Rtt109 Vps75)
Cc1nn(CC(=O)NCc2ccccc2)c(C)c1[N+](=O)[O-]	Statin myotox sup 84
Cc1nn(CC(=O)NCCc2ccccc2)c(=O)c2ccccc12	Statin myotox sup 137
C[C@H](CO)N1C[C@H](C)[C@H](CN(C)S(=O)(=O)c2cccs2)Oc2ccc(NC(=O)Cc3cn(C)c4ccccc34)cc2C1=O	Statin myotox sup 104 (no result: CDK5 inh, Rtt109 Vps75)
C[C@H]1CN([C@@H](C)CO)C(=O)c2cc(NC(=O)Cc3cn(C)c4ccccc34)ccc2O[C@H]1CN(C)S(=O)(=O)c1cccs1	Statin myotox sup inconclusive (no result: CDK5 inh, Rtt109 Vps75)
C[C@@H]1CN([C@@H](C)CO)C(=O)c2cc(NC(=O)Cc3cn(C)c4ccccc34)ccc2O[C@H]1CN(C)S(=O)(=O)c1cccs1	Statin myotox sup 111 (no result: CDK5 inh, Rtt109 Vps75)
O=C(NCc1nnnn1-c1ccc(F)cc1)c1ccc2ccccc2c1	none (no result: CDK5 inh, Rtt109 Vps75)
Cc1ccc(-n2nnnc2CNC(=O)c2ccc([N+](=O)[O-])o2)cc1C	Statin myotox sup 80 (no result: Yeast UUG start, Cneo AK release)
O=C(NCc1nnnn1-c1ccc(F)cc1)c1ccc([N+](=O)[O-])o1	Statin myotox sup 70 (no result: Yeast UUG start, Cneo AK release)
CCOCCn1c(COc2ccccc2)nc2ccccc21	Statin myotox sup 122
COCc1nc2ccccc2n1CCCOc1ccccc1	Statin myotox sup 127
Cc1nc2ccccc2n1CCCOc1ccccc1	none (no result: Statin myotox sup)
COC(=O)CCCC(=O)N1CCOCCN(C(=O)CCCC(=O)OC)CCOCC1	Statin myotox sup 110
COC(=O)CCC(=O)N1CCOCCOCCN(C(=O)CCC(=O)OC)CCOCCOCC1	none (no result: Statin myotox sup)
O=C(Oc1ccc(Cl)cc1N1C(=O)CCC1=O)c1ccco1	Statin myotox sup 66
O=C(Oc1ccc(N2C(=O)CCC2=O)cc1)c1ccco1	none
O=C(C/C=N/OCc1ccc(Cl)cc1Cl)c1ccccc1	Rtt109 Vps75 65
O=C(C/C=N/OCc1ccc(Cl)cc1Cl)c1ccc(Cl)cc1	none
C/C=C/c1ccc([C@@H]2[C@H](CO)N(C(=O)NCCC)[C@H]2CNC(=O)C2CCC2)cc1	none (no result: CDK5 inh, Rtt109 Vps75)
C[C@H]1CCCCO[C@H](CN(C)S(=O)(=O)c2ccc(F)cc2)[C@@H](C)CN([C@@H](C)CO)C(=O)c2cc(NS(=O)(=O)c3ccc(Cl)cc3)ccc2O1	none (no result: Statin myotox sup, CDK5 inh, Rtt109 Vps75)
CN(C)C(=O)[C@@H]1[C@@H](CO)[C@@H]2Cn3c(cccc3=O)[C@@H]2N1CC1CCCC1	none (no result: Yeast UUG start, CDK5 inh, Rtt109 Vps75)
CC(C)C(OC(=O)CCCC(=O)Nc1nccs1)C(=O)NC1CCCCC1 (configuration not stated)	none (no result: Yeast UUG start, Statin myotox sup, Cneo AK release)
CC(C)C(OC(=O)CCC(=O)Nc1nccs1)C(=O)NC1CCCCC1 (configuration not stated)	Statin myotox sup 99
CC(=O)Nc1cccc(C(=O)Nc2cccc3ncccc23)c1	none
CCOc1cc(C(=O)Nc2cccc3ncccc23)cc(OCC)c1OCC	Statin myotox sup 107
COc1ccc(C#Cc2ccc([C@@H]3[C@@H](CO)N4CCCCN(S(=O)(=O)c5cn(C)cn5)C[C@@H]34)cc2)cc1	none (no result: CDK5 inh, Rtt109 Vps75)
C[C@@H]1CN([C@@H](C)CO)C(=O)c2cc(NC(=O)C3CCCCC3)ccc2O[C@@H](C)CCCCO[C@@H]1CN(C)Cc1ccccc1	none (no result: Statin myotox sup, CDK5 inh, Rtt109 Vps75)
Cc1noc(C)c1S(=O)(=O)Nc1ccc2c(c1)C(=O)N([C@H](C)CO)C[C@H](C)[C@@H](CN(C)Cc1ccc3c(c1)OCO3)O2	none (no result: CDK5 inh, Rtt109 Vps75)
Cc1noc(C)c1S(=O)(=O)Nc1ccc2c(c1)C(=O)N([C@@H](C)CO)C[C@@H](C)[C@H](CN(C)Cc1ccc(Cl)c(Cl)c1)OCCCC[C@@H](C)O2	Statin myotox sup 121 (no result: CDK5 inh, Rtt109 Vps75)
Cc1noc(C)c1S(=O)(=O)Nc1ccc2c(c1)C(=O)N([C@@H](C)CO)C[C@H](C)[C@@H](CN(C)Cc1ccc3c(c1)OCO3)OCCCC[C@@H](C)O2	Cneo AK release 101 (no result: Statin myotox sup, CDK5 inh, Rtt109 Vps75)
Cc1noc(C)c1S(=O)(=O)Nc1ccc2c(c1)C(=O)N([C@@H](C)CO)C[C@H](C)[C@H](CN(C)Cc1ccc3c(c1)OCO3)O2	Statin myotox sup 76 (no result: CDK5 inh, Rtt109 Vps75)
CO[C@@H]1CN(C)C(=O)c2cc(NC(=O)C3CCC3)ccc2OC[C@@H](C)NC[C@@H]1C	none (no result: CDK5 inh, Rtt109 Vps75)
CCc1nnc(NC(=O)CN2C(=O)c3ccccc3C2=O)s1	Rtt109 Vps75 55
COc1cc(NC(=O)C(Cc2ccccc2)n2cccc2)cc(OC)c1 (configuration not stated)	Rtt109 Vps75 52 (no result: Yeast UUG start, Statin myotox sup, Cneo AK release)
Cc1noc(C)c1S(=O)(=O)Nc1ccc2c(c1)C(=O)N([C@@H](C)CO)C[C@H](C)[C@H](CN(C)S(=O)(=O)c1cccs1)OCCCC[C@@H](C)O2	none (no result: Yeast UUG start, CDK5 inh, Rtt109 Vps75)
COCCn1nnnc1C(c1ccc(C)cc1)N1CCN(Cc2ccc3c(c2)OCO3)CC1 (configuration not stated)	Statin myotox sup 93
C=CCN1CCN(C(c2ccccc2)c2nnnn2CCC(C)C)CC1 (configuration not stated)	Statin myotox sup 71
CC(C)CCn1nnnc1C(c1ccccc1)N1CCN(C)CC1 (configuration not stated)	none (no result: Rtt109 Vps75)
